According to publication PMC6465285, “Arsinothricin, an arsenic-containing non-proteinogenic amino acid analog of glutamate, is a broad-spectrum antibiotic” (Communications Biology, 2019):

System: CP(=O)(O)CC[C@H](N)C(=O)O
Assay: purified protein
Conditions: two conformations: PPT-1 as L-AST; PPT-2 with Phe33a, Ala124a, Val158a, Arg77b, Arg75b, Tyr80b, Val86a, Gly122a

## PpArsN1 (ArsN1 N-acetyltransferase) (Pseudomonas putida KT2440)
  Km: 1000 ± 200 µM
  kcat: 9.6 s⁻¹
  kcat/Km: 10000 M⁻¹ s⁻¹
